# From PubChem BioAssay AID652115 (Broad Institute, 2013)
# The chains behind the UniProt entries cited, without tags or fusion partners.
# UniProt Q9NXA8, whole entry: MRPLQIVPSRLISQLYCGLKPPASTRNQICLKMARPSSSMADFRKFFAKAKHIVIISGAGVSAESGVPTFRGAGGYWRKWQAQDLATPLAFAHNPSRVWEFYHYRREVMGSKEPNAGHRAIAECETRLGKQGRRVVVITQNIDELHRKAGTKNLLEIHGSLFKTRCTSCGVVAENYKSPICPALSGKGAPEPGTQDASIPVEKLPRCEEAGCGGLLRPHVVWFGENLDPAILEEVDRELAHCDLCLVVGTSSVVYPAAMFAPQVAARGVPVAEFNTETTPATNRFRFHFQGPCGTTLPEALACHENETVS
# The list shows a part of the results, in another mix than the full data. Some salts and complexes are drawn in separate pieces, as the source files them; their charges need not balance. Active and inactive are the calls of the source. Rule as the data show it: active = inhibition above about 15%; inconclusive = no clear call, values can overlap the other calls; inactive = below that.
# Target: NAD-dependent protein deacylase sirtuin-5, mitochondrial (Homo sapiens) (UniProt Q9NXA8)
# Assay: blockers of sirtuin-5 deacylase activity – biochemical, fluorescence imaging, single point, set 5, primary screen (AID 652115)
# Details: Purified SirT5, succinyl-peptide AMC, trypsin-coupled fluorescence; at 15 µM; active compounds read high
row,SMILES,inhibition
1,O=[N+]([O-])c1cc([N+](=O)[O-])c(-n2nnc3ccccc32)c([N+](=O)[O-])c1,inactive: 1.25%
2,O=[N+]([O-])c1cc([N+](=O)[O-])c(-c2cnn(-c3ccccc3)c2)c([N+](=O)[O-])c1,inactive: -6.91%
3,CP(=O)(Nc1ccc(SC(F)(F)F)cc1)Oc1ccc(F)cc1 (stereo not given),inactive: -1.01%
4,COc1ccc(NP(C)(=O)Oc2ccccc2OC)cc1 (stereo not given),inactive: -1.95%
5,Cc1c(C(c2ccc3c(c2)OCO3)c2c(C)n(C)n(-c3ccccc3)c2=O)c(=O)n(-c2ccccc2)n1C.O=[N+]([O-])c1cc([N+](=O)[O-])c(O)c([N+](=O)[O-])c1,inactive: -4.7%
6,O=[N+]([O-])c1ccc(OP2(=O)COCCO2)cc1 (stereo not given),inactive: -3.23%
7,Cc1cc(-c2cccc3ccccc23)c(C)cn1.O=[N+]([O-])c1cc([N+](=O)[O-])c(O)c([N+](=O)[O-])c1,inactive: 4.07%
8,O=[N+]([O-])c1cc([N+](=O)[O-])c(NCC2CCS(=O)(=O)C2)c([N+](=O)[O-])c1 (stereo not given),inactive: -2.28%
9,COc1ccc(OP(C)(=O)Nc2ccc(SC(F)(F)F)cc2)cc1 (stereo not given),inactive: -4.92%
10,CCCCCOc1ccc(NP(C)(=O)Oc2ccc(Cl)cc2Cl)cc1 (stereo not given),inactive: -3.51%
11,O=[N+]([O-])c1cc([N+](=O)[O-])c(OC2CCCCC2O)c([N+](=O)[O-])c1 (stereo not given),inactive: 5.22%
12,Cc1c([N+](=O)[O-])cc([N+](=O)[O-])c(Br)c1[N+](=O)[O-],inactive: 3.42%
13,CP(=O)(Nc1ccccc1F)Oc1ccccc1 (stereo not given),inactive: -1.33%
14,CC(C)c1ccc(OP(C)(=O)Nc2ccc(SC(F)(F)F)cc2)cc1 (stereo not given),inactive: 1.62%
15,O=[N+]([O-])c1cc([N+](=O)[O-])c(Nc2ccc(Cl)cc2)c([N+](=O)[O-])c1,inactive: 1.97%
16,COc1ccc2c(c1O)-c1c(O)c(OC)cc3c1[C@H](C2)[N+](C)(C)CC3.O=[N+]([O-])c1cc([N+](=O)[O-])c([O-])c([N+](=O)[O-])c1[O-],inactive: -9.05%
17,O=C(OC1CN2CCC1CC2)c1ccc([N+](=O)[O-])cc1 (stereo not given),inactive: -5.43%
18,O=C(OCCN1CCN(CCOCc2ccccc2)CC1)C(O)(c1ccccc1)c1ccccc1,inactive: -1.23%
19,COc1ccccc1OP(C)(=O)Nc1ccc(Br)cc1 (stereo not given),inactive: -5.02%
20,O=[N+]([O-])c1cc([N+](=O)[O-])c(Nc2ccccn2)c([N+](=O)[O-])c1,inactive: 3.51%
21,Cc1cc(C)cc(OP(C)(=O)Nc2cccc(C(F)(F)F)c2)c1 (stereo not given),inactive: -3.96%
22,CP(=O)(OCCOc1ccccc1)OCCOc1ccccc1,inactive: 1.21%
23,CCCCCCCCCCCCCCCC1C[N+](C)(C)CCOP(C)(=O)O1 (stereo not given),active: 17%
24,CP(=O)(Nc1ccc(Cl)cc1Cl)Oc1ccccc1 (stereo not given),inactive: -3.19%
25,CCOC(=O)c1ccc(NP(C)(=O)Oc2ccc(Cl)cc2)cc1 (stereo not given),inactive: -2.38%
26,Nc1ccc2c(ccc3cccnc32)n1.O=[N+]([O-])c1cc([N+](=O)[O-])c(O)c([N+](=O)[O-])c1,inactive: -3.86%
27,O=C(OCCCN1CCCC1)C(O)(c1ccccc1)C1CCCCC1 (stereo not given),inactive: -2.56%
28,CCc1ccc(OP(C)(=O)Nc2cccnc2)cc1 (stereo not given),inactive: -0.74%
29,CN(C)C(=O)c1c([N+](=O)[O-])cc([N+](=O)[O-])cc1[N+](=O)[O-],inactive: -3.8%
30,COc1ccccc1OP(C)(=O)Nc1ccccc1Br (stereo not given),inactive: -0.065%
